Data as given in patent US4847241A, “Fluorenyl substituted tyrosyl dipeptide amides which are useful in treating pain” (priority 1988, dated 1989).

Target: opiate receptors isolated from rat brain
Conditions: read-out: Opiate Binding, IC50
Protocol: The test compounds were evaluated for their ability to displace the binding of ^3 H-Naloxone to opiate receptors isolated from rat brain. […] The final pellet was resuspended in 2 volumes of 50 mM tris HCl (pH 7.4).
Levorphanol (1×10^-5 M) was used as the displacer for non-specific binding. […] Total assay volume was 1.0 ml.

SMILES | IC50 [µM]
Cc1cc(O)cc(C)c1CC(N)C(=O)N[C@H](C)C(=O)N1CCCc2ccccc21.Cl (stereo partly drawn) [Example 30, α-amino-4-hydroxy-2,6-dimethyl-N-[1R-methyl-2-oxo-2-(1,2,3,4-tetrahydro-1-quinolinyl)ethyl]benezenepropanamide, monohydrochloride] | 0.061
Cc1cc(O)cc(C)c1C[C@H](N)C(=O)N[C@H](C)C(=O)NCCc1cccs1.Cl [Example 39, 2,6-dimethyl-L-tyrosyl-N-[2-(2-thienyl)ethyl]-D-alainamide, monohydrochloride] | 0.0012
